Experimental data reported in patent US20160009782A1.

Legend:
[1] = biological target: human Leukocyte immunoglobulin-like receptor B2 (LilrB2) expressed in HEK293 cells (human) (UniProt Q8N423); assay: biotinylated Aβ42 on LilrB2-expressing HEK293 cells, fluorescent streptavidin, control cells subtracted
[2] = biological target: human Leukocyte immunoglobulin-like receptor B2 (LilrB2) expressed in HEK293 cells (human) (UniProt Q8N423); assay: alkaline phosphatase assay on LilrB2-expressing HEK293 cells

Kd [1]: 206 nM
Kd [2]: 250 nM
Substance: oligomerized synthetic human Aβ1-42 peptide (oligo-Aβ42)
